System: HL-7702 normal liver cells
Experiment: CCK8 cell viability assay
Format: cell-based, human
Description: Cell viability assay using the CCK8 reagent (Bimake, Shanghai, China) was conducted according to the manufacturer’s instructions. The cell proliferation data were used to calculate the cell viability. Briefly, HepG2, SMMC-7721, and HL-7702 cells with a density of 5 × 10^3 cells/well were seeded into each well of 96-well plates and incubated overnight. BCP stock solution (400 mM) was prepared in ethanol, and DOX and DDP stock solutions (20 mM) were individually prepared in DMSO. […] The dosages of DOX and DDP were previously determined ([Jehan et al., 2020]; [Farooq et al., 2023]). […] After 48 h, 10 µL of CCK8 reagent was added to each well, followed by 2 h incubation at 37°C and measurement of absorbance at 450 nm using a microplate reader (Molecular Devices, LLC.). […] The antiproliferative effects of BCP in combination with DOX and DDP were evaluated by the combination index (CI) using the formula: […] The effects of the combinatorial inhibition were visualized by isobologram analyses ([Tallarida, 2001]). The IC50 values of each cell line were arranged for the isobologram analysis so that the IC50 of DOX represents a point on the X-axis and the IC50 of BCP represents a point on the Y-axis. A line was drawn to link the two IC50 points. Each dot in the isobologram represented an IC50 value of a BCP and DOX combination. The dots above, on, or below the line indicate the “antagonistic,” “additive” and “synergistic” effects, respectively. The same method was used to obtain the CI value for the cotreatment of BCP and DDP.

## COc1cccc2c1C(=O)c1c(O)c3c(c(O)c1C2=O)C[C@@](O)(C(=O)CO)C[C@@H]3O[C@H]1C[C@H](N)[C@H](O)[C@H](C)O1 [DOX, doxorubicin]
HL-7702, cotreatment with 25 μM BCP
  combination index (CI): 1.02
HL-7702, cotreatment with 50 μM BCP
  combination index (CI): 0.98
HL-7702, cotreatment with 100 μM BCP
  combination index (CI): 1.03
HL-7702, cotreatment with 150 μM BCP
  combination index (CI): 1.05
